Laboratory results as given in patent publication US9259422B2, “Orvinol and thevinol derivatives useful in the treatment of depression” (dated 2016).

Protein sequences, listed by entry. Tags and fused reporters are not part of them. Lines headed by an entry give the natural chain unless they say otherwise; changes in a name come on top.
UniProt P33533, whole entry, looked up: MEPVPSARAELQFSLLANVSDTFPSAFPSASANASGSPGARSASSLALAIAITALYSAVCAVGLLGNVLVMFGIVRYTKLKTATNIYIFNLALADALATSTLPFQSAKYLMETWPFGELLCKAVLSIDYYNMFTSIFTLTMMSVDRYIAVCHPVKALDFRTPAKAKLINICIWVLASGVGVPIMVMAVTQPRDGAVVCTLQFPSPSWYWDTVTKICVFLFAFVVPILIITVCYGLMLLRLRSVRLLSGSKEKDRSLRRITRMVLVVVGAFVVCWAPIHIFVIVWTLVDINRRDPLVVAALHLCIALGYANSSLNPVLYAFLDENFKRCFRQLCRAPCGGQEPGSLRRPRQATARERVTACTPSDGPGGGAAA
UniProt P41145: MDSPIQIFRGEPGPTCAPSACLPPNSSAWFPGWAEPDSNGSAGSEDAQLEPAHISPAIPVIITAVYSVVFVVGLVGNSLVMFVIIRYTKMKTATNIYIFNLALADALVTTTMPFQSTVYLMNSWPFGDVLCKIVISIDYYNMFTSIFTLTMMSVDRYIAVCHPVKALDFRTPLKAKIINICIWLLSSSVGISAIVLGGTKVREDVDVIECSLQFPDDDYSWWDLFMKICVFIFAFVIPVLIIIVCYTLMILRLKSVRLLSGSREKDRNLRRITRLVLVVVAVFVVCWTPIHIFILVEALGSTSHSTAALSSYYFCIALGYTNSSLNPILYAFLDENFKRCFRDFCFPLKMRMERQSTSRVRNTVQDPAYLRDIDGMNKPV

Tests used:
rat DOR = rat DOR (Rattus norvegicus (Rat), UniProt P33533); assay: Ligand binding assay, [3H]diprenorphine, delta (DOP) receptor
human KOR = human KOR (Homo sapiens (Human), UniProt P41145); assay: [35S]GTPγS binding assay, kappa receptor; settings: for Kappa % stim (efficacy): single concentration (10 μM) versus the standard U69,593

Row | Structure (SMILES) | Ki (rat DOR) | Kappa antagonist potency Ke (human KOR; against standard agonist U69593) | Kb (human KOR; read-out: Kappa antagonist potency Ke, against standard agonist U69593) | Kappa % stim (efficacy) (human KOR)
1 | CO[C@]12CC[C@@]3(C[C@@H]1[C@H](O)c1ccccc1)[C@H]1Cc4ccc(O)c5c4[C@@]3(CCN1CC1CC1)[C@H]2O5 | 2.55 nM | – | – | –
2 | CO[C@]12C=C[C@@]3(C[C@]1(C)[C@H](O)c1ccccc1)[C@H]1Cc4ccc(O)c5c4[C@@]3(CCN1CC1CC1)[C@H]2O5 | – | 0.41 nM | 0.41 nM | 3%
3 | CO[C@]12CC[C@@]3(C[C@]1(C)[C@H](O)c1cccc(C)c1)[C@H]1Cc4ccc(O)c5c4[C@@]3(CCN1CC1CC1)[C@H]2O5 | – | – | – | −1%
4 | CO[C@]12CC[C@@]3(C[C@]1(C)[C@H](O)c1ccc(F)cc1)[C@H]1Cc4ccc(O)c5c4[C@@]3(CCN1CC1CC1)[C@H]2O5 | – | – | – | −5%
